According to patent US10961200B2, “Small molecule inhibitors of lactate dehydrogenase and methods of use thereof” (THE UNITED STATES OF AMERICA, AS REPRESENTED BY THE …, priority 2014, dated 2021):

Test system: MiaPaCa2 cells
Experiment: cell-based HT lactate assay, colorimetric/fluorometric detection (inhibition of lactate production)
Conditions: read-out: Lactate activity (inhibition of lactate production); class symbols, 0 to 3 pluses
Experimental: Cell-based HT Lactate assay is a miniaturized Biovision Lactate Colorimetric/Fluorometric Assay Kit (Cat #K607-100). The assay is roughly a 3.5 hour assay run in a 1536 plate format. Cell number optimization should be run for each cell line to achieve an optimal number in which lactate production equals roughly 90% of the standard curve range. Cell number per well optimization has been performed with the following cell lines: MiaPaCa2—500 cells/well, SNU398—500 cells/well, and P493—500 cells/well.
The lactate activity in Table 8 is represented by 0 to 3 pluses as follows: +++<1 μM; ++1-10 μM; +10-57 μM; and −>57 μM.

Compound	IC50
NS(=O)(=O)c1ccc(Cc2c(-c3ccc(F)c(-c4cnoc4)c3)nn(-c3nc(C(=O)O)cs3)c2CC2CC2)cc1F	1 to 10 µM
CC#Cc1cc(-c2nn(-c3nc(C(=O)O)cs3)c(CC3CC3)c2Cc2ccc(S(N)(=O)=O)c(F)c2)ccc1F	< 1 µM
